Assay results reported in ChEMBL document CHEMBL1212911, “Identification of potent and selective amidobipyridyl inhibitors of protein kinase D” (J Med Chem, 2010).

Protein sequences, listed by entry. Tags and fused reporters are not part of them.
UniProt Q13554, whole entry: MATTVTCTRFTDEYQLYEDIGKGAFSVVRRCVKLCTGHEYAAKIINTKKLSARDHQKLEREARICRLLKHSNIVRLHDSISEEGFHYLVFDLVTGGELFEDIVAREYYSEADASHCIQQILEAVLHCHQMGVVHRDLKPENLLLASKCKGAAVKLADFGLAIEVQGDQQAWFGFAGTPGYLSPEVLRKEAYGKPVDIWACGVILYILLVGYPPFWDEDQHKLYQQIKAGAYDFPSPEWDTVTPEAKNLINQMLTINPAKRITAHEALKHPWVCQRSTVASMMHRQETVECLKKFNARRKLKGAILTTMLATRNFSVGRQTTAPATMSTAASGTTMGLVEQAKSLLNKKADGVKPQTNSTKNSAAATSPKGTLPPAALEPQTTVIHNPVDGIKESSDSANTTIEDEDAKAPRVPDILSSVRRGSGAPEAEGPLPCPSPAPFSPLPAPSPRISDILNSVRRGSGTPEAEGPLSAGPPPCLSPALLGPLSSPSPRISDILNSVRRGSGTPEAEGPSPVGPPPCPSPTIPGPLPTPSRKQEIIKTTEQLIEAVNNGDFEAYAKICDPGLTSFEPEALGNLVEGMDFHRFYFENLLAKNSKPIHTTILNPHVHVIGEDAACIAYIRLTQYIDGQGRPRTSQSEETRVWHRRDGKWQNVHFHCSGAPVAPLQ

Key:
Caco-2 = assay: Ratio of permeability from apical to basolateral side to basolateral to apical side in human Caco-2 cells; type: ADME, cell-based
[1] = Inhibition of rat CaMK2beta; conditions: concentration not given here
[2] = target: Calcium/calmodulin-dependent protein kinase type II subunit beta (Homo sapiens) (UniProt Q13554); assay: Inhibition of human CaMK2beta; conditions: concentration not given here
Procedure, shortened: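 Selectivity screen run externally (Invitrogen SelectScreen). Percent inhibition measured at 1 μM compound, mean of 2 measurements.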

SMILES | Ratio (Caco-2) | inhibition [1] [%] | inhibition [2] [%]
NC(=O)c1cc(-c2ccnc(NC3CCCCC3)c2)nc(N2CCNCC2)c1 | 7.89 | 0 | 
c1cc2c(N3CCNCC3)nc(-c3ccnc(NC4CCCCC4)c3)cc2cn1 |  | 36 | 36
